Patent US20090209474A1, “NOVEL USES FOR DRUGS TARGETING GLUTAMINE SYNTHETASE” (NEWTHERA, priority 2005, published 2009)

By UniProt entry, the sequences of proteins in these tests, tags left out. Residues count along the entry.
UniProt P15105, 2-373 limits assumed: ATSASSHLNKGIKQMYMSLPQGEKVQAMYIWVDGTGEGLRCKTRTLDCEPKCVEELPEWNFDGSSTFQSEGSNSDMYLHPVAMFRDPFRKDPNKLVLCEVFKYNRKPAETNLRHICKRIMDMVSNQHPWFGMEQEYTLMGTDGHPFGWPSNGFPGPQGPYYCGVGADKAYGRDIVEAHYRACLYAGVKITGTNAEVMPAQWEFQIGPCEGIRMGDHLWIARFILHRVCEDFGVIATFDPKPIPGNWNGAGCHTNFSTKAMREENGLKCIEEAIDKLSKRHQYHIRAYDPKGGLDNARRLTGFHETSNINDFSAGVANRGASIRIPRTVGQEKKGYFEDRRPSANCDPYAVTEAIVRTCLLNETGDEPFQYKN
UniProt P09606, 2-373 limits assumed: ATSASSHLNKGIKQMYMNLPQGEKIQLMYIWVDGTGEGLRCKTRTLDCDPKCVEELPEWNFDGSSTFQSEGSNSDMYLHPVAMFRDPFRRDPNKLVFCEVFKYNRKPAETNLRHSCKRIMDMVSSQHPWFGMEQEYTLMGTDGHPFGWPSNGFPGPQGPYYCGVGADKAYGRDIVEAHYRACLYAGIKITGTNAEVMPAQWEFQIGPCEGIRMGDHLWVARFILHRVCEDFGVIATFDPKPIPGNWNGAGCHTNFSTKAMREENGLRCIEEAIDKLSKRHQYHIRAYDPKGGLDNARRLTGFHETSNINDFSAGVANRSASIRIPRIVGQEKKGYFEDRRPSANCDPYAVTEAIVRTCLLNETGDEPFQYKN

What was measured:
[1] = over 48 hours; cited from earlier work
Wistar rats = test: PTZ-induced seizures; assay type: in vivo; conditions: GF 0.5, 5, 25 mg/kg, tianeptine 1, 10, 50 mg/kg i.p. 1 h before PTZ 50 mg/kg i.p.
GS [2] = molecular target: GS (Mus musculus, UniProt P15105); conditions: 24 h after single i.p.
GS [3] = molecular target: GS (Rattus norvegicus, UniProt P09606); assay type: in vivo, Wistar rats; design: Wistar rat brain homogenates were incubated with naftazone; from tissue; host or cells: Wistar rat brain homogenate or membranes; in A19 also liver and lungs

CP(=O)(O)CCC(N)C(=O)O (racemic) [GF, ammonium 4-[hydroxy (methyl)phosphinoyl]-DL-homoalaninate]
part of an oral dose unabsorbed, eliminated unchanged in the faeces [1]: 80-90%

CN1c2ccccc2C(NCCCCCCC(=O)O)c2ccc(Cl)cc2S1(=O)=O (stereo not shown) [tianeptine, 7-[(3-chloro-6,11-dihydro-6-methyl-dibenzo[c,f][1,2]thiazepin-11-yl)amino] heptanoic acid S,S-dioxide]
seizure occurrence after PTZ administration (Wistar rats): decreased seizure occurrence
GS activity in the hippocampus (GS [2]): dose-dependently increased GS activity
GS activity in the thalamus/hypothalamus (GS [2]): decreased GS activity
GS activity in the cortex (GS [2]; GF 0.1, 3, 15 mg/kg, tianeptine 0.5, 15, 45 mg/kg): no significant effect
GS activity in the cortex, hippocampus and thalamus/hypothalamus (GS [3]; one hour after PTZ administration): increased GS activity
dose relation of the effects on GS activity (GS [3]; rat, in vivo): not proportional to the dose
